What was measured:
[1] = tested on: B16F10 mouse melanoma tumors; test: Immune cells in tumor microenvironment by flow cytometry, subcutaneous B16F10 melanoma; type: in vivo, mice
[2] = tested on: STAT5 phosphorylation in lymphocytes; test: STAT5 phosphorylation in lymphocytes by flow cytometry after administration in mice; type: in vivo
Source text: Conventional approaches, such as those involving radiolabeling a compound, administering it in vivo, and determining its clearance, may be used to determine whether a compound proposed to be a long-acting IL-2Rβ biased agonist is “long-acting”. For the purposes herein, the long-acting nature of an IL-2Rβ biased agonist is typically determined using flow cytometry to measure STAT5 phosphorylation in lymphocytes at various time points after administration of the agonist to be evaluated in mice. As a reference, the signal is lost by around 24 hours with IL-2, but is sustained fora period greater than that for a long-acting IL-2Rβ-biased agonist.

“(2,7-(bis-methoxyPEG10kD-carboxyamide)(9H-fluorene-9-yl)methyl N-carbamate)4-6interleukin-2 [RSLAIL-2]” was tested, and the “activated natural killer (NK) cells” value ([1]; 5 and 7 days after treatment initiation) was “increased”, the “CD4 cell percentages of tumor-infiltrating lymphocytes” value ([1]; day 5, relative to vehicle) was “diminished” and the “CD4 cell percentages of tumor-infiltrating lymphocytes” value ([1]; day 10, compared with vehicle and aldesleukin) was “fewer CD4 cell percentages”. The “total and memory CD8 cells as percentage of tumor-infiltrating lymphocytes” value ([1]; relative to vehicle) was “significant (P<0.05) and sustained total and memory CD8 T-cell stimulation”, the “percentage of Tregs (FoxP3+ subset of CD4 cells) in tumor” value ([1]; single dose RSLAIL-2 or 5 doses aldesleukin) was “reduced percentage of Tregs at every time point” and the “duration of STAT5 phosphorylation signal” value [2] was “sustained over several days”.
